# Results: patent US10620188B2, “Using impedance-based cell response profiling to identify putative inhibitors for oncogene addicted targets or pathways” (ACEA Biosciences, Inc., priority 2002, dated 2020)
# How the values were obtained:
# A431 = experiment: Impedance-based TCRP of A431 cells, constitutive EGFR activation; type: cell-based; settings: from 0 to 20 uM
# H1975 = experiment: Impedance-based TCRP of H1975 cells, constitutive EGFR activation; type: cell-based; settings: from 0 to 20 uM
smiles,measurement,setting,value
C=CC(=O)Nc1cccc(Oc2nc(Nc3ccc(N4CCN(C)CC4)cc3OC)ncc2Cl)c1 [WZ4002],TCRP (Cell Index response),A431,dose-dependent short-term and long-term decrease in Cell Index
same,TCRP (Cell Index response),H1975,dose-dependent short-term and long-term decrease in Cell Index
